# Cyclic peptide permeability, from CycPeptMPDB

Collected by the curators of CycPeptMPDB (Li et al. 2023) from Furukawa et al. 2016, doi:10.1021/acs.jmedchem.6b01246.

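Conditions beyond the assay type are not listed; see the original paper. The list need not hold all peptides of the study. Peptides that the database sets to -10, its floor, are left out.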

PAMPA is the parallel artificial membrane permeability assay, which has no cells and reads passive diffusion. Permeability is given as log10 of P in cm/s; higher (less negative) is more permeable.

| structure (SMILES) | PAMPA (log10 cm/s) |
|---|---|
| CCCC[C@@H]1NC(=O)[C@@H](CC(C)C)N(C)C(=O)CN(CC2CCCCC2)C(=O)[C@H](C)NC(=O)CN(Cc2ccc3c(c2)OCO3)C(=O)[C@H]2CCCN2C1=O | -5.17 |
| CCCCCN1CC(=O)N[C@@H](CC(C)C)C(=O)N[C@@H](CCCC)C(=O)N2CCC[C@H]2C(=O)N(CCCOC(C)C)CC(=O)N[C@H](Cc2ccccc2)C1=O | -5.29 |
| CCCCCN1CC(=O)N[C@@H](CC(C)C)C(=O)N[C@@H](CCCC)C(=O)N2CCC[C@H]2C(=O)N(Cc2ccc3c(c2)OCO3)CC(=O)N[C@@H](C)C1=O | -5.50 |
| CCCC[C@@H]1NC(=O)[C@H](CC(C)C)N(C)C(=O)CN(CC2CCCCC2)C(=O)[C@@H](Cc2ccccc2)NC(=O)CN(CC)C(=O)[C@H]2CCCN2C1=O | -5.16 |
| CCCC[C@@H]1NC(=O)[C@@H](CC(C)C)NC(=O)CN(CC2CCCCC2)C(=O)[C@@H](C)NC(=O)CN(Cc2ccc3c(c2)OCO3)C(=O)[C@@H]2CCCN2C1=O | -5.42 |
| CCCC[C@@H]1NC(=O)[C@H](CC(C)C)N(C)C(=O)CN(CC2CCOCC2)C(=O)[C@H](Cc2ccccc2)NC(=O)CN(Cc2ccc3c(c2)OCO3)C(=O)[C@H]2CCCN2C1=O | -5.46 |
| CCCCCN1CC(=O)N(C)[C@H](CC(C)C)C(=O)N[C@@H](CCCC)C(=O)N2CCC[C@@H]2C(=O)N(CCCOC(C)C)CC(=O)N[C@H](Cc2ccccc2)C1=O | -5.21 |
| CCCCCN1CC(=O)N[C@@H](CC(C)C)C(=O)N[C@@H](CCCC)C(=O)N2CCC[C@@H]2C(=O)N(CC)CC(=O)N[C@H](Cc2ccccc2)C1=O | -5.41 |
| CCCC[C@@H]1NC(=O)[C@@H](CC(C)C)N(C)C(=O)CN(CC2CCCCC2)C(=O)[C@H](C)NC(=O)CN(CCCOC(C)C)C(=O)[C@@H]2CCCN2C1=O | -4.83 |
| CCCC[C@@H]1NC(=O)[C@@H](CC(C)C)N(C)C(=O)CN(CC2CCCCC2)C(=O)[C@@H](Cc2ccccc2)NC(=O)CN(Cc2ccc3c(c2)OCO3)C(=O)[C@H]2CCCN2C1=O | -6.88 |
| CCCCCN1CC(=O)N(C)[C@@H](CC(C)C)C(=O)N[C@@H](CCCC)C(=O)N2CCC[C@@H]2C(=O)N(CCCOC(C)C)CC(=O)N[C@H](C)C1=O | -5.79 |
| CCCC[C@@H]1NC(=O)[C@@H](CC(C)C)NC(=O)CN(CC2CCCCC2)C(=O)[C@@H](Cc2ccccc2)NC(=O)CN(CCCOC(C)C)C(=O)[C@@H]2CCCN2C1=O | -4.87 |
| CCCC[C@@H]1NC(=O)[C@@H](CC(C)C)NC(=O)CN(CC2CCCCC2)C(=O)[C@H](Cc2ccccc2)NC(=O)CN(CCCOC(C)C)C(=O)[C@@H]2CCCN2C1=O | -5.02 |
| CCCCCN1CC(=O)N(C)[C@H](CC(C)C)C(=O)N[C@@H](CCCC)C(=O)N2CCC[C@@H]2C(=O)N(CC)CC(=O)N[C@H](C)C1=O | -5.99 |
| CCCC[C@@H]1NC(=O)[C@@H](CC(C)C)NC(=O)CN(CC2CCCCC2)C(=O)[C@H](Cc2ccccc2)NC(=O)CN(Cc2ccc3c(c2)OCO3)C(=O)[C@H]2CCCN2C1=O | -5.89 |
| CCCC[C@@H]1NC(=O)[C@H](CC(C)C)N(C)C(=O)CN(CC2CCOCC2)C(=O)[C@@H](C)NC(=O)CN(Cc2ccc3c(c2)OCO3)C(=O)[C@H]2CCCN2C1=O | -6.66 |
| CCCC[C@@H]1NC(=O)[C@H](CC(C)C)NC(=O)CN(CC2CCCCC2)C(=O)[C@H](Cc2ccccc2)NC(=O)CN(CC)C(=O)[C@@H]2CCCN2C1=O | -5.00 |
| CCCC[C@@H]1NC(=O)[C@H](CC(C)C)N(C)C(=O)CN(CC2CCOCC2)C(=O)[C@H](C)NC(=O)CN(CCCOC(C)C)C(=O)[C@H]2CCCN2C1=O | -6.47 |
| CCCC[C@@H]1NC(=O)[C@@H](CC(C)C)NC(=O)CN(CC2CCOCC2)C(=O)[C@@H](Cc2ccccc2)NC(=O)CN(CCCOC(C)C)C(=O)[C@@H]2CCCN2C1=O | -6.56 |
| CCCCCN1CC(=O)N(C)[C@@H](CC(C)C)C(=O)N[C@@H](CCCC)C(=O)N2CCC[C@@H]2C(=O)N(CC)CC(=O)N[C@H](C)C1=O | -6.43 |
| CCCC[C@@H]1NC(=O)[C@H](CC(C)C)NC(=O)CN(CC2CCCCC2)C(=O)[C@@H](C)NC(=O)CN(CC)C(=O)[C@@H]2CCCN2C1=O | -6.48 |
| CCCCCN1CC(=O)N[C@H](CC(C)C)C(=O)N[C@@H](CCCC)C(=O)N2CCC[C@H]2C(=O)N(CC)CC(=O)N[C@H](C)C1=O | -6.71 |
| CCCCCN1CC(=O)N[C@@H](CC(C)C)C(=O)N[C@@H](CCCC)C(=O)N2CCC[C@@H]2C(=O)N(CC)CC(=O)N[C@H](C)C1=O | -6.84 |